# Target: Poly [ADP-ribose] polymerase 1 (Homo sapiens, UniProt P09874)
# Chains of the proteins cited; added tags and fusions are not shown.
# UniProt P09874, whole entry: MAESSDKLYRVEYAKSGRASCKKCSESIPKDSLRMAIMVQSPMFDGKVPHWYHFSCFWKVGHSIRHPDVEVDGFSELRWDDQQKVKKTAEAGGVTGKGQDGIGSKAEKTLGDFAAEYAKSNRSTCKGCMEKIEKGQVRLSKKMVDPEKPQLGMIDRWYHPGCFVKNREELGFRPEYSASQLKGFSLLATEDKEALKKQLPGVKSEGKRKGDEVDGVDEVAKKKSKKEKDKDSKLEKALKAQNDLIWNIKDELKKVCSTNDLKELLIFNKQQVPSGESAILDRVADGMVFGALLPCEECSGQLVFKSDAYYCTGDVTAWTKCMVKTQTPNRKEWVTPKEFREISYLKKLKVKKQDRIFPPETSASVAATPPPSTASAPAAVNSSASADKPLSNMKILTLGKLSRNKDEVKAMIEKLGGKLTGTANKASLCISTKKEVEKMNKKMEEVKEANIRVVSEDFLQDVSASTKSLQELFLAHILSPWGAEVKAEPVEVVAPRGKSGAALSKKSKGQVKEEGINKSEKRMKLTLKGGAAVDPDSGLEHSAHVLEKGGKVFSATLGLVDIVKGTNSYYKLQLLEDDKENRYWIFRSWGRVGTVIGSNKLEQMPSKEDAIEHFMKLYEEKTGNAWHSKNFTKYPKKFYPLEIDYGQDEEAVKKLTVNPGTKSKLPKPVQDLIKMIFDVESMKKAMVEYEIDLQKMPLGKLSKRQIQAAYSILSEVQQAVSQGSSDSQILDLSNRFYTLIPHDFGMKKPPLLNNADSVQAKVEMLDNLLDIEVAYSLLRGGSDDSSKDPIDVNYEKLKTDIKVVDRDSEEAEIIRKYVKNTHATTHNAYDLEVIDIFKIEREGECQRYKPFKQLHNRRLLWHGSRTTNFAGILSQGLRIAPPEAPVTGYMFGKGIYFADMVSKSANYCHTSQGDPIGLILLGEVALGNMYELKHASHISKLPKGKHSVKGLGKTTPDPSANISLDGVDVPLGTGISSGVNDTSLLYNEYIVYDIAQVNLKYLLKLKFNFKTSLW
# Assay: Inhibition of PARP1 (unknown origin)
smiles,measurement,value
O=C(COc1cccc2c(=O)[nH]ccc12)c1ccccc1,IC50,100 nM

# — ChEMBL document CHEMBL5136991, “Dual-target inhibitors of poly (ADP-ribose) polymerase-1 for cancer therapy: Advances, challenges, and opportunities” (Eur J Med Chem, 2022)
